Entries after “also recorded” stand apart in the source; their conditions may differ.
Columns and labels:
SW480 cells [1] = assay: Cytokinetic studies (cell cycle distribution by flow cytometry), SW480; type: cell-based, human; settings: data not shown
HT-29 cells [2] = assay: Cytokinetic studies (cell cycle distribution by flow cytometry), HT-29; type: cell-based, human; settings: alpha-2a-interferon alone
HT-29 cells [3] = assay: Clonogenic assay (cell kill / cloning efficiency), HT-29; type: cell-based, human; settings: alpha-2a-interferon alone
SW480 cells [4] = assay: Clonogenic assay (cell kill / cloning efficiency), SW480; type: cell-based, human; settings: alpha-2a-interferon alone

Question: What does the source list for “alpha-2a-interferon: recombinant alpha-2a-interferon”?
Answer: effect on cell cycle versus HT-29 (SW480 cells [1]; 5-fluorouracil and alpha-2a-interferon alone or in combination): qualitatively identical effects; prolongation of the block in G0/G1 (SW480 cells [1]): 24 h; effect on cell cycle distribution (HT-29 cells [2]): only minimal effects on cell cycle distribution; predominant effect on cell cycle (S phase) (HT-29 cells [2]; 2 hours and 7 hours): a transient block in S phase at 2 hours which almost completely reversed by 7 hours; cell kill (HT-29 cells [3]): less than 40%; adverse events leading to removal from study (temporally associated with alpha-2a-interferon): partial complex seizure after the first dose; also recorded: bronchospastic episodes; worsening of performance status (while on alpha-2a-interferon, by one or two levels): Nearly half the patients; cell kill (SW480 cells [4]): less than 40%

Source: patent US5444064A, “Method of treating gastrointestinal malignancies” (Montefiore Medical Center, priority 1989, dated 1995)
